The values that follow are results of earlier work, collected in patent US11730740B2, “Laureth-4 containing topical formulations” (ARCUTIS BIOTHERAPEUTICS, INC., priority 2020, dated 2023).

For this series the following is noted: 10% w/w surfactant in white petrolatum with 10% salicylic acid and 10% DMSO; 5.0 grams on 6.4×12.7 cm^2 skin; 8 hr.

polyoxyl 8 stearate: the “percutaneous absorption of salicylic acid” value was “increased significantly”.
